Earlier results in patent US11124517B2, “Crystal form of Baricitinib and preparation method thereof” (CRYSTAL PHARMACEUTICAL (SUZHOU) CO., LTD., priority 2017, dated 2021).

Tested on: JAK1 and JAK2
Conditions: cited from earlier work

CCS(=O)(=O)N1CC(CC#N)(n2cc(-c3ncnc4[nH]ccc34)cn2)C1 [Baricitinib]
Selectivity for JAK1 and JAK2 over JAK3: 100 fold
